Type in all cases: cell-based
For one assay, the target named is T1, hPPAR α (Homo sapiens, UniProt Q07869).
T1 construct: expressed in transfected cells; host or cells: CV-1 cells
T1 sequence (Q07869 239-466 limits assumed): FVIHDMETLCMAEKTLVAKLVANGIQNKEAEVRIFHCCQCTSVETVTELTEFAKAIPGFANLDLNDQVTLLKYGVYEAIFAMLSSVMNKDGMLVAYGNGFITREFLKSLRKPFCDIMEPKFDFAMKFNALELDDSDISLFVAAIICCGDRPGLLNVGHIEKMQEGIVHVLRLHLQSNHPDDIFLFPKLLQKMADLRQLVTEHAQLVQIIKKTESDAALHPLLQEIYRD
Description: Transient transfection (transactivation) assay in CV-1 cells, hPPAR alpha. From the text: (§1) Compounds were screened for functional potency in transient transfection assays in CV-1 cells for their ability to activate the PPAR subtypes (transactivation assay). A previously established chimeric receptor system was utilized to allow comparison of the relative transcriptional activity of the receptor subtypes on the same target gene and to prevent endogenous receptor activation from complicating the interpretation of results. […] The ligand binding domains for murine and human PPAR alpha, PPAR gamma, and PPAR delta were each fused to the yeast transcription factor GAL4 DNA binding domain. CV-1 cells were transiently transfected with expression vectors for the respective PPAR chimera along with a reporter construct containing five copies of the GAL4 DNA binding site driving expression of secreted placental alkalin phosphatase (SPAP) and beta-galactosidase. After 16 h, the medium was exchanged to DME medium supplemented with 10% delipidated fetal calf serum and th test compound at the appropriate concentration. After an additional 24 h, cell extracts were prepared and assayed for alkaline phosphatase and β-galactosidase activity. […] The positive control in the hPPAR alpha assays was 2-methyl-2-[4-{[(4-methyl-2-[4-trifluoromethylphenyl]-thiazol-5-yl-carbonyl)amino]methyl}-phenoxy]propionic acid. […]

Protein sequences, listed by entry. Tags and fused reporters are not part of them. Residues count along the entry.
UniProt P37231, 238-503 limits assumed: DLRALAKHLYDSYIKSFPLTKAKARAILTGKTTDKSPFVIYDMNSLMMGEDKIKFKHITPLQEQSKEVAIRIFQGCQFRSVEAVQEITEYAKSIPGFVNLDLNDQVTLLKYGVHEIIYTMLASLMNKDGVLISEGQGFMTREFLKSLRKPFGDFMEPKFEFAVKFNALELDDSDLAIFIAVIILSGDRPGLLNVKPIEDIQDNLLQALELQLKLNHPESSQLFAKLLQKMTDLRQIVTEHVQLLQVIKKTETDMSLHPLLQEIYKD

The target of another assay is T2, hPPAR δ (Homo sapiens, UniProt Q03181).
T2 construct: expressed in transfected cells; host or cells: CV-1 cells
T2 sequence (Q03181 211-439 limits assumed): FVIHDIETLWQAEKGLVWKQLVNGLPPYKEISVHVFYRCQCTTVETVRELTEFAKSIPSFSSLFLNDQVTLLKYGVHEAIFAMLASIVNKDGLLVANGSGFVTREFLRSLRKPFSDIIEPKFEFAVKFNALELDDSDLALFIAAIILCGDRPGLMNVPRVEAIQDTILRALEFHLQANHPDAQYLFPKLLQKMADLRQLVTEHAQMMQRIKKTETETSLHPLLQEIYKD
Description: Transient transfection (transactivation) assay in CV-1 cells, hPPAR delta.
From the text: as §1

Another assay has as its target T3, hPPAR γ (Homo sapiens, UniProt P37231).
T3 construct: expressed in transfected cells; host or cells: CV-1 cells
Description: Transient transfection (transactivation) assay in CV-1 cells, hPPAR gamma.
From the text: as §1

Broadly, the EC50 is the concentration that produces a half-maximal response. A low value points to higher potency in that assay. In the case of `Cc1cc(SCc2sc(-c3ccc(C(F)(F)F)cc3F)nc2C)ccc1OC(C)(C)C(=O)O` [Example 1, 2-{4-[({2-[2-fluoro-4-(trifluoromethyl)phenyl]-4-methyl-1,3-thiazol-5-yl}methyl)sulfanyl]-2-methylphenoxy}-2-methylpropanoic acid], the values for the 50% effective concentration (EC50) on hPPAR α, on hPPAR δ and on hPPAR γ were 43 nM, 2.5 nM and 57 nM, respectively.

The record behind these values is patent US7105551B2, “Thiazole derivatives for treating PPAR related disorders” (SmithKline Beecham Corporation, priority 2000, dated 2006).
